Tested on: E. Coli Juhl
Experiment: Acute mouse protection test
Format: in vivo
Conditions: mice infected intraperitoneally with E. Coli JUHL, dosed at 1 and 5 hours post-infection

SMILES: CCCC(N)C(=O)NC1CCN(c2nc3c(cc2F)c(=O)c(C(=O)O)cn3C2CC2)C1 (stereo not shown) [Example 26p]
- Oral (ED50): 1.7 mg/kg/day
